This note sets out measurements from PubChem BioAssay AID662 (National Center for Advancing Translational Sciences (NCATS), 2007).

This is a selection; strong and weak results do not stand in their true shares. Inconclusive results are not listed. Activity calls are given as the source filed them. Calls come from the whole dose curve; as a rule, active = well fitted activation curve with a large enough effect in the signal ratio, with a control signal flat (not every such curve was filed as active); inconclusive = small, poorly fitted or top-dose-only effect, or effect the other way, or a change in a side signal; inactive = flat fitted curve, though single readings scatter; the % refers to the signal ratio.

This assay in a line: Cell signaling CRE-BLA (Fsk stim). Note: % of control where 0% means no effect. The settings on record: CHO CRE-bla reporter (cAMP response element driving beta-lactamase), forskolin EC10, beta-lactamase ratio; at 38.2 µM unless noted. From the text: NIH Molecular Libraries Screening Centers Network [MLSCN]
NIH Chemical Genomics Center [NCGC]
Assay Provider: Marshall W. Nirenberg, U.S. National heart lung & blood institute
Memories persist for different lengths of time, from seconds or minutes to a lifetime. There are two kinds of memory: short-term memory (STM) and long-term memory (LTM). STM lasts for minutes to hours, which maybe mediated by modifications of molecules involved in synaptic functions. LTM lasts for days or longer, and may be due to the formation of new synapses or restructuring of existing synapses. LTM, but not STM, requires gene transcription and synthesis of proteins. CREB (cyclic-AMP Responsive Element Binding Protein) is one of the candidates plays an important role for enhancement of some types of LTM. CREB, a family of transcription factors, regulates the transcription of genes containing cAMP Responsive Elements (CRE). CRE is a nucleotide sequence often found in the promoter regions of genes that are binding sites for CREB.
Using a beta-lactamase reporter-gene under control of cAMP responsive element, a cell-based assay [CellSensor(TM) CRE-bla CHO developed by Invitrogen Corp.] was used to measure forskolin-induced signaling. Library compounds were measured for their ability to modulate positively or negatively the action of EC10 NKH 477, a water soluble forskolin, on reporter gene activity. Compounds were screened in a titration series in 1536-well format. Positive and negative modulators were identified based on the AC50 values derived from the screening data.
NCGC Assay Protocol Summary
2000 cells/5uL in Opti-MEM medium containing 0.5% dialyzed FBS, 0.1 mM NEAA, 1 mM sodium pyruvate and 10 mM HEPES was dispensed into 1536-well plates and cells were cultured at 37 degrees Celsius overnight. […] And then the plates were incubated at 37 degrees Celsius for 3 hours. 1 uL of CCF4-dye mixture was added to each well. After incubated at room temperature for 2 hours the plates were measured on an EnVision plate reader at Excitation 405nm, Emission1=460nm and Emission 2=530nm. The %Activity was determined from the ratio of 460nm/530nm.
Keywords: NIH Roadmap, MLSCN, MLSMR, qHTS, NCGC, CRE, beta-lactamase reporter-gene assay.
For `O=C(O)C1(Nc2ccccc2)CCN(Cc2ccccc2)CC1`, the activity change, negative = inhibition was inactive: 5.43% [at 7.6 µM].

On to `CCC(CO)(C(=O)OC1CN2CCC1CC2)c1ccccc1` (stereo not drawn), for which the activity change, negative = inhibition is inactive: -2.58%.

Turning to `Fc1ccccc1NC1CCN(Cc2ccccc2)CC1`, the activity change, negative = inhibition was inactive: -7.19%.

As to `ClCCOP(OCCCl)OCCCl`, the activity change, negative = inhibition is inactive: -9.37%.

In the case of `N/C(=N\O)c1c(N)no[n+]1[O-]`, the activity change, negative = inhibition is inactive: 9.23%.

As for `CCOP(=O)(Cl)Cl`, the activity change, negative = inhibition is inactive: -9.87%.

As to `NC1CCCCC1.NP(=O)(O)N(CCCl)CCCl`, the activity change, negative = inhibition is inactive: 2.87% [at 7.6 µM].

`N#CC1(Nc2ccccc2)CCN(CCc2ccccc2)CC1`: the activity change, negative = inhibition is inactive: 15.9%.
